Measurements taken from ChEMBL document CHEMBL5696442, “Discovery of type II inhibitors of TGFβ-activated kinase 1 (TAK1) and mitogen-activated protein kinase kinase kinase kinase 2 (MAP4K2)” (J Med Chem, 2015).

Legend:
[1] = target: T1, Mitogen-activated protein kinase kinase kinase 7 (Homo sapiens) (UniProt O43318); assay: Inhibition of TAK1 (unknown origin) at 10 uM by Ambit Kinomescan binding assay relative to control
T1 sequence (whole entry): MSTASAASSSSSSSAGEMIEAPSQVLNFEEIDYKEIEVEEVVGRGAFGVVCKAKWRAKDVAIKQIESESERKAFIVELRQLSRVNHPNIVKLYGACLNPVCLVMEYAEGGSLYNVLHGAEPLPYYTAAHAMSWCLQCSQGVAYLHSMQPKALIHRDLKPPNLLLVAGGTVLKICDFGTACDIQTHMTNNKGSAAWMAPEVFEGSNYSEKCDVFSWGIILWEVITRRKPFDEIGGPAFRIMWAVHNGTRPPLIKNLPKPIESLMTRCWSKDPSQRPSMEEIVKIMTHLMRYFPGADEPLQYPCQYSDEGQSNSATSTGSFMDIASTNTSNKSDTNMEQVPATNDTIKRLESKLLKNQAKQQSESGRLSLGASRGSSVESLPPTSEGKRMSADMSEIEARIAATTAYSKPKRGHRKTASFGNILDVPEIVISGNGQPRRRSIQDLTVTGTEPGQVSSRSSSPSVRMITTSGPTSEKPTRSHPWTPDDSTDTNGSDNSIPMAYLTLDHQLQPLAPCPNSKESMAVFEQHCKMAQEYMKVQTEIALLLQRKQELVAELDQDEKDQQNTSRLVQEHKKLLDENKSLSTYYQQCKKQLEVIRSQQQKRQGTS

[2] = target: T2, Serine/threonine-protein kinase TAO3 (Homo sapiens) (UniProt Q9H2K8); assay: Inhibition of TAOK3 (unknown origin) at 10 uM by Ambit Kinomescan binding assay relative to control
T2 sequence (whole entry): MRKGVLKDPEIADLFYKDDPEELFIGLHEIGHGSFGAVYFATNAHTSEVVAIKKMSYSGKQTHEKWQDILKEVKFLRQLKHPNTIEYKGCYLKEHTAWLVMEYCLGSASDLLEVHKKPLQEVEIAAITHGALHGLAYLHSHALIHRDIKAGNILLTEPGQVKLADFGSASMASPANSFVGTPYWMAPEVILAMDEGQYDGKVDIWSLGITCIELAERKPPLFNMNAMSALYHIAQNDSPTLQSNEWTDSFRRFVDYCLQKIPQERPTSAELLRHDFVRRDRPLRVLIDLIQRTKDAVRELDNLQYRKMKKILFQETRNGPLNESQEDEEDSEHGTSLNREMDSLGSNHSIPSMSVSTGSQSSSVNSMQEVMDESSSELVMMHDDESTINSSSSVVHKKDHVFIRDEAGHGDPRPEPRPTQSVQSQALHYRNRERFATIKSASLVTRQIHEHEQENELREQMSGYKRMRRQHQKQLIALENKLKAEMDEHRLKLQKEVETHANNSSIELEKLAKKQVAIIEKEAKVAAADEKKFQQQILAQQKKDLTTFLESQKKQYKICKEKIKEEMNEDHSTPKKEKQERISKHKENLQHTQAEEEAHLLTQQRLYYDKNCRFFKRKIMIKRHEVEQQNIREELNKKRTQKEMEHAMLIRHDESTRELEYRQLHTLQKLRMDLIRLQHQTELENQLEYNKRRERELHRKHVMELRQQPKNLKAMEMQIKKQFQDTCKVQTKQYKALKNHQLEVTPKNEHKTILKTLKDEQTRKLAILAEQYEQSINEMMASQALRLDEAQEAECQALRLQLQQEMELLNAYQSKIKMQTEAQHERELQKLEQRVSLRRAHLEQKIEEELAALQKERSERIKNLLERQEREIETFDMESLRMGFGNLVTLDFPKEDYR

## CCN1CCN(Cc2ccc(NC(=O)c3ccc(C)c(Oc4ccnc5[nH]ccc45)c3)cc2C(F)(F)F)CC1
[1]
  residual activity: 0.15%
[2]
  residual activity: 0.15%
